ChEMBL document CHEMBL1136157, “Synthesis of 3a,4-dihydro-3H-[1]benzopyrano[4,3-c]isoxazoles, displaying combined 5-HT uptake inhibiting and alpha(2)-adrenoceptor antagonistic activities: a novel series of potential antidepressants” (Bioorg Med Chem Lett, 2003)

Molecular target: Sodium-dependent serotonin transporter (Homo sapiens) (UniProt P31645)
Assay: In vitro binding affinity towards human serotonin transporter

COc1cc2c(cc1OC)C1=NOC(CN3CCN(Cc4ccc5ccccc5c4)CC3)C1CO2 (stereo not drawn) and COc1cc2c(cc1OC)C1=NO[C@@H](CN3CCN(Cc4ccc5ccccc5c4)CC3)[C@@H]1CO2 (stereo in doubt; (+)15h) are the same in Ki: 1.7 nM for the first, 1.7 nM for the second.

COc1cc2c(cc1OC)C1=NO[C@@H](CN3CCN(Cc4ccc5ccccc5c4)CC3)[C@@H]1CO2 (stereo in doubt; (-)15h) showed a Ki of 1.3 nM.
